Columns and labels:
[1] = molecular target: β-catenin/E-cadherin interaction (Homo sapiens (Human), UniProt P35222); assay type: binding; conditions: read-out: Ki ± SD β-catenin/E-cadherin; FP selectivity assay; mean ± SD, n = 3
[2] = molecular target: β-catenin/APC-R3 interaction (Homo sapiens (Human), UniProt P35222); assay type: binding; conditions: read-out: Ki ± SD β-catenin/APC; FP selectivity assay; mean ± SD, n = 3

Sequences of proteins named here, by UniProt entry; tags and fusion partners are left off. Residues count along the entry.
UniProt P35222, 138-781 limits assumed: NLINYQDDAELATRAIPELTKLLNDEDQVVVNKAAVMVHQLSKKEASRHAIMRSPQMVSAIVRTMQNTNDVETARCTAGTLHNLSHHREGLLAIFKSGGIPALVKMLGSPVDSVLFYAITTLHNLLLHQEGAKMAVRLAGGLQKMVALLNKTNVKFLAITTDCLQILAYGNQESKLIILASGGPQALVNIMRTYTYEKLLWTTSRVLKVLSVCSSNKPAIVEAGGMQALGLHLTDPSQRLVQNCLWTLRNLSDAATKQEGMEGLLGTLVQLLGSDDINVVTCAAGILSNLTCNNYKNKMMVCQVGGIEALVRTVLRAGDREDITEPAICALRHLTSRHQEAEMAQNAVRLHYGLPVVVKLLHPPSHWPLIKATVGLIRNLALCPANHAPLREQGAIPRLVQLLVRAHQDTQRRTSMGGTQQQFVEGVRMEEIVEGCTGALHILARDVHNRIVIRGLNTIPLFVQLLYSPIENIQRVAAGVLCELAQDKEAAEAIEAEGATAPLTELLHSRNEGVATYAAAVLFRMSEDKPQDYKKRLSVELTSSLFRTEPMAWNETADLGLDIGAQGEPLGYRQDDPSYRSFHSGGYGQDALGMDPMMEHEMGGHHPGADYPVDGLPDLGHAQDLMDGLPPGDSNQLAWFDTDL

## O=C(O)CC[C@H](NC(=O)[C@H](Cc1nn[nH]n1)NC(=O)[C@H](Cc1ccc2ccccc2c1)NC(=O)c1cc2c(Cl)cc(Cl)cc2[nH]1)C(=O)Nc1ccc(OC(F)(F)F)cc1 [Compound 57, (S)-4-((S)-2-((S)-2-(4,6-Dichloro-1H-indole-2-carboxamido)-3-(naphthalen-2-yl)propanamido)-3-(2H-tetrazol-5-yl)propanamido)-5-oxo-5-((4-(trifluoromethoxy)phenyl)amino)pentanoic acid]
[1]
  Ki: 13 ± 0.6 µM
[2]
  Ki: 173 ± 15 µM
